Results from paper PMC4604408, “Targeting the Parasite's DNA with Methyltriazenyl Purine Analogs Is a Safe, Selective, and Efficacious Antitrypanosomal Strategy” (Antimicrobial Agents and Chemotherapy, 2015).

System: HEK293 (human embryonic kidney 293T cells)
Test: extended alamarBlue cytotoxicity assay on human embryonic kidney cells
Details: read-out: In vitro activity (EC50) HEK293, mean ± SEM, n ≥ 3

O=[As]c1ccccc1 (stereo not shown)
EC50: 940 nM
